Values quoted from earlier work, collected in patent US20260137644A1, “COMPOSITIONS INCLUDING CAFFEIC ACID PHENETHYL ESTER” (XMK THERAPEUTICS INC., priority 2022, published 2026).

Sequences of proteins named here, by UniProt entry; tags and fusion partners are left off. Residues count along the entry.
UniProt P35354, 18-604: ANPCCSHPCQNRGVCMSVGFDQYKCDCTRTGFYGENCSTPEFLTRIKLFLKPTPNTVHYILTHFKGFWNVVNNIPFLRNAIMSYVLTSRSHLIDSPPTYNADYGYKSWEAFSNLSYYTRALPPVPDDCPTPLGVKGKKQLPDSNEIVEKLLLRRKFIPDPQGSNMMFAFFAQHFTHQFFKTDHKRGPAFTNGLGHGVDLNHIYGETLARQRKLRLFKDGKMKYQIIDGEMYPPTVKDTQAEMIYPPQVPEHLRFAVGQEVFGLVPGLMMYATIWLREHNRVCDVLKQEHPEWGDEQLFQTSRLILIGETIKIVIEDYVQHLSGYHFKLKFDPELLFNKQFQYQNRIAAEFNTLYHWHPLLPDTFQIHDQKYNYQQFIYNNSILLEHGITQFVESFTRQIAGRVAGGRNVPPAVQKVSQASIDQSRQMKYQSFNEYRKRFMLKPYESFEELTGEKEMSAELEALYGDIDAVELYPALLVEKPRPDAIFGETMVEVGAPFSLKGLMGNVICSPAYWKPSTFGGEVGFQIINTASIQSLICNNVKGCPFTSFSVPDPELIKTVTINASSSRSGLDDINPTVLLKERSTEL
UniProt P23219, 24-599: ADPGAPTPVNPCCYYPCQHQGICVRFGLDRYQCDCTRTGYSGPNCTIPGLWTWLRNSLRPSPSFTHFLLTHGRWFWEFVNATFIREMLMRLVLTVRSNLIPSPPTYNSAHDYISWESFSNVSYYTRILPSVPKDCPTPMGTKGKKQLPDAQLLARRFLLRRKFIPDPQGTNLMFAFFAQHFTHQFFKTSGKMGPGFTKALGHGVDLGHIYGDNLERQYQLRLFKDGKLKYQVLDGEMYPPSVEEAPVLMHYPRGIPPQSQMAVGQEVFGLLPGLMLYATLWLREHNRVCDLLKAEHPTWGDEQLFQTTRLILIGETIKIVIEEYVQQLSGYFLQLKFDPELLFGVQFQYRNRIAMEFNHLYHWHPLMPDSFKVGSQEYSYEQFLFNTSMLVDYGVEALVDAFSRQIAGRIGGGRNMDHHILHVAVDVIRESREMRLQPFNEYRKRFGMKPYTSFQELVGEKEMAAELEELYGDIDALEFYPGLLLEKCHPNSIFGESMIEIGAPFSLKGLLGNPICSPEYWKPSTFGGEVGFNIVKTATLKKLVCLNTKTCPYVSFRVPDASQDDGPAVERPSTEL

Key:
[1] = target: COX-2 (Homo sapiens, UniProt P35354)
[2] = target: COX-1 (Homo sapiens, UniProt P23219)

In the case of O=C(/C=C/c1ccc(O)c(O)c1)OCCc1ccccc1 [CAPE, 2-phenylethyl (E)-3-(3,4-dihydroxyphenyl)prop-2-enoate], the COX-2 activity [1] is given as “inhibits” and the COX-1 activity [2] is given as “inhibits”.
